The values below are quoted from earlier work in US9555077B2, “Methods of lowering body temperature by administration of desacyl ghrelin or its derivative” (UNIVERSITY OF MIYAZAKI, priority 2011, dated 2017).

Amino acid sequences for entries named in this document (tags omitted).
UniProt Q92847, whole entry: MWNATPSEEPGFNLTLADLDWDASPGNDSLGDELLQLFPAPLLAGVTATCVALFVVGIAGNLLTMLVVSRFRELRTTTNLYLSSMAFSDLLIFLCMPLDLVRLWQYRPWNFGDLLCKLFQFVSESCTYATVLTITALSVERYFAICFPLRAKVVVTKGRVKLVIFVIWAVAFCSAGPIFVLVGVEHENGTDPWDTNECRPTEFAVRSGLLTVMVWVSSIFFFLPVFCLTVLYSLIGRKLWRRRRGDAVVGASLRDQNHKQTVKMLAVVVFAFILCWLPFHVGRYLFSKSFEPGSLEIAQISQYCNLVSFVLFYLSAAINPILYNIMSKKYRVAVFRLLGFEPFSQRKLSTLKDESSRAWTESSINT

The target of this data set is GHS-R1a (Homo sapiens, UniProt Q92847). The following applies: Broglio et al. 2004; cited from earlier work.

On to desacyl ghrelin, for which the “affinity to GHS-R1a” value is recorded as “almost no affinity”.
